Reference: PubChem BioAssay AID588492 (Sanford-Burnham Center for Chemical Genomics, 2011)
The entries are a selection whose mix differs from that of the whole data set. The source made the active and inactive calls.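 How the source made its calls: active means compounds giving at least 50% protection of heart cells from peroxide-induced death in the single-dose screen, raw or plate-pattern-corrected value; inactive means the rest.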

Assay: cardioprotection against H2O2-induced cell death, primary screen, uHTS, H9c2 cells, ATPLite luminescence (AID 588492);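 further: 0% = DMSO wells with peroxide and 100% = DMSO wells without peroxide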
Conditions: H9c2 cardiomyocytes, H2O2 injury protection, 2 h, at 20 µM, stronger effect = higher value

Structure (SMILES)	protection from H2O2 cell death
CCC(=O)N(c1ccccc1)C1CCN(CCc2ccccc2)CC1	inactive: 1.2%
CCC(=O)N(c1ccccc1)C1(COC)CCN(CCc2cccs2)CC1	inactive: 2.4%
CCC(=O)N(c1ccccc1)C1(COC)CCN(CCn2nnn(CC)c2=O)CC1	inactive: -1.6%
